This note sets out measurements from patent publication US9611224B2 (Hoffmann-La Roche Inc., priority 2012, dated 2017).

Molecules are shown by their SMILES. pIC50: −log10 of the molar value. Structures can show the parent of a compound that is named as a salt. Where only a bound is given, the exact number is not on record here.

For one experiment, the target named is BIR3 domain of XIAP (Homo sapiens (Human), UniProt P98170). Briefly: TR-FRET assay for BIR3 (inhibition of binding to Peptide A).
Details: not given
For orientation: In TR-FRET formats the signal depends on donor and acceptor labels being close together.
`CN[C@@H](C)C(=O)N[C@H]1CCc2ccccc2N(Cc2c(C)ncc3ccccc23)C1=O` [Example 47u, (S)-2-Methylamino-N—[(S)-1-(3-methyl-isoquinolin-4-ylmethyl)-2-oxo-2,3,4,5-tetrahydro-1H-benzo[b]azepin-3-yl]-propionamide hydrochloride] gave a pIC50 of 4.39.

The experiment is the same for the next values; noted with them: 6x His-tagged BIR3 domain (aa 241-356 of XIAP), 20 nM Peptide A, 10 concentrations.
Consider `CN[C@@H](C)C(=O)N[C@H]1CCc2ccccc2N(Cc2cccc(C(F)(F)F)c2C)C1=O` [hydrochloride], for which the pIC50 is less than 4.24.
On the same count and under the same terms, next, `CN[C@@H](C)C(=O)N[C@H]1CCc2ccccc2N(Cc2c(F)ccc3ccccc23)C1=O` [Example 47s, (S)—N—[(S)-1-(2-Fluoro-naphthalen-1-ylmethyl)-2-oxo-2,3,4,5-tetrahydro-1H-benzo[b]azepin-3-yl]-2-methylamino-propionamide hydrochloride]: less than 4.26.
On the same count and under the same terms, next, `CN[C@@H](C)C(=O)N[C@H]1CCc2ccccc2N(Cc2cccc(-c3ccccc3)c2)C1=O` [Example 55b, (S)—N-(1-Biphenyl-3-ylmethyl-2-oxo-2,3,4,5-tetrahydro-1H-benzo[b]azepin-3-yl)-2-methylamino-propionamide hydrochloride]: 4.50.
Same read-out and setting: to `CN[C@@H](C)C(=O)N[C@H]1CCc2ccccc2N(Cc2ccc3ccccc3c2)C1=O` [Example 47nn, (S)-2-Methylamino-N—((S)-1-naphthalen-2-ylmethyl-2-oxo-2,3,4,5-tetrahydro-1H-benzo[b]azepin-3-yl)-propionamide hydrochloride] belongs less than 4.27.
With `CN[C@@H](C)C(=O)N[C@H]1CCc2ccccc2N(CCc2ccccc2)C1=O` [Example 55g, (S)-2-Methylamino-N-(2-oxo-1-phenethyl-2,3,4,5-tetrahydro-1H-benzo[b]azepin-3-yl)-propionamide hydrochloride], the negative logarithm of the IC50 (pIC50) was less than 4.27.
Consider `CN[C@@H](C)C(=O)N[C@H]1CCc2ccccc2N(Cc2cccc3c(Br)cccc23)C1=O` [Example 47tt, (S)—N—[(S)-1-(5-Bromo-naphthalen-1-ylmethyl)-2-oxo-2,3,4,5-tetrahydro-1H-benzo[b]azepin-3-yl]-2-methylamino-propionamide hydrochloride], for which the negative-log IC50 (pIC50) was less than 4.26.
In turn, `CN[C@@H](C)C(=O)N[C@H]1CCc2ccccc2N(Cc2cccc3ccc(C#N)cc23)C1=O` [Example 54f, (S)—N—[(S)-1-(7-Cyano-naphthalen-1-ylmethyl)-2-oxo-2,3,4,5-tetrahydro-1H-benzo[b]azepin-3-yl]-2-methylamino-propionamide hydrochloride] gave a pIC50 of less than 4.26.
Same read-out and setting: next, `CN[C@@H](C)C(=O)N[C@H]1CCc2ccccc2N(Cc2c(OC)ccc3c(-c4ccoc4)cccc23)C1=O` [Example 49c, (S)—N—[(S)-1-(5-Furan-3-yl-2-methoxy-naphthalen-1-ylmethyl)-2-oxo-2,3,4,5-tetrahydro-1H-benzo[b]azepin-3-yl]-2-methylamino-propionamide hydrochloride]: less than 4.26.
For `CN[C@@H](C)C(=O)N[C@H]1CCc2ccccc2N(Cc2cccc3ccc(C(N)=O)cc23)C1=O` [Example 54g, 8-[(S)-3-((S)-2-Methylamino-propionylamino)-2-oxo-2,3,4,5-tetrahydro-benzo[b]azepin-1-ylmethyl]-naphthalene-2-carboxylic acid amide hydrochloride], the pIC50 was less than 4.26.

By pIC50 is commonly meant −log10 of the IC50, conventionally taken in molar units. Lower therefore signals a high IC50.
